# Measurements from PMC11124525, “Pharmacokinetic–Pharmacodynamic Correlation Analysis of Rhodiola crenulata in Rats with Myocardial Ischemia” (Pharmaceuticals, 2024).
# “Also recorded” adds a separate entry of the source. Like-named read-outs stand apart in the source and are kept apart here.
# Legend:
# [1] = Experimental: A series concentration mixed reference solution with different concentrations was added to 100 μL plasma, and was treated according to the method under Section 4.6 to obtain the matrix standard curve sample. Samples with concentrations of 400, 100, and 10 ng/mL, respectively, were taken as quality control (QC) samples of high, medium, and low concentrations (HQC, MQC, LQC). The method was validated, including linearity, inter-day/intra-day precision, repeatability, stability, extraction recovery, and matrix effect, according to FDA bioanalytical method validation guidelines.
# [2] = PK of five RC components in sham operation administration (SDG, normal) rats after oral RC extract, HPLC-QQQ-MS/MS, DAS; assay type: in vivo; conditions: oral RC extract 2 g/kg, plasma, mean ± SD, n = 6
# Experimental: (§1) The drug concentration in plasma was calculated using the standard curve, and the mean blood concentration was plotted against the time to obtain the mean blood concentration–time curve (Figure 4).
# (§2) The rat model of MI was made with Pit. The rats were divided into a sham operation group (SG), sham operation administration group (SDG), model group (MG), and model administration group (MDG) (n = 6 for each group). The MI model was prepared via an intraperitoneal injection (a single time) of Pit in the MG and MDG, with a dosage of 20 U/kg and a volume of 10 mL/kg. At the same time, the rats in the SG and SDG groups were given the same volume of saline in the same way.
# (§3) RC extract (2 g/kg, equivalent to human clinical equivalent dose) was given to rats via oral administration in SDG and MDG, and the same volume of normal saline was orally administered to the SG and MG. Rats were fasted for 12 h before the experiment. Blood was collected from the fundus venous plexus at 0, 5, 10, 15, 30, 45 min, 1, 2, 4, 6, 8, 12, and 24 h after in gavage, placed in a centrifuge tube impregnated with heparin sodium, centrifuged at 3500 rpm for 15 min, and then the plasma was collected and divided into two parts. One part was used for biochemical index determination and the other part was used to determine the content of pharmaceutical ingredients in vivo. After the experiment, the rats were sacrificed, and the hearts were placed in paraformaldehyde for histopathological analysis.
# (§4) The plasma sample of 100 μL was accurately absorbed, 50 μL internal standard solution (Nimodipine, 500 ng/mL) was added, then 300 μL acetonitrile precipitated protein was added, vortex for 10 min, placed under ultrasound for 3 min, centrifuged at 13,000 rpm for 10 min, and then the supernatant was transferred to another centrifuge tube. It was then concentrated until dry with a rotary evaporator. The residue was redissolved with 100 μL 50% acetonitrile, swirled for 1 min, placed under ultrasonic for 3 min, centrifuged at 13,000 rpm for 10 min, and the supernatant was taken for analysis.
# (§5) A validated HPLC-QQQ-MS/MS method was used for the determination of drug-derived components in plasma samples at different time points. The accompanying standard curve was substituted to calculate the content of the compounds to be measured, and then the PK parameters were calculated using DAS software (version 3.2.8), and the blood concentration–time curve was plotted using GraphPad Prism (version 8.0.2). PK behavior was compared between the sham operation and model group, and PK models were established, respectively.
# [3] = PK of five RC components in pituitrin-induced myocardial ischemia (MDG) rats after oral RC extract, HPLC-QQQ-MS/MS, DAS; assay type: in vivo, SD rats
# Experimental: as §1, §2, §3, §4, §5
# [4] = MDG (myocardial ischemia) rats, oral RC extract 2 g/kg, plasma, mean ± SD, n = 6
# [5] = MDG vs SDG rats, oral RC extract 2 g/kg
molecule,measurement,setting,value
"OCCc1ccc(O)cc1 [Tyrosol, tyrosol]",Stability RE (%),"[1]; rat, 48 h, 400 ng/mL",93.15%
same,Stability RE (%),"[1]; rat, 10 days, 50 ng/mL",93.68%
rhodiosin,AUC(0−t),[2],1190.07 ± 56.37 ng·h/mL
same,AUC(0−∞),[2],1208.73 ± 44.35 ng·h/mL
same,CLz/F,[2],69 ± 2.5 mL/min/kg
same,Cmax,[2],259.08 ± 30.04 ng/mL
same,MRT(0−),[2],4.28 ± 0.27 h
same,MRT(0−∞),[2],4.75 ± 1.08 h
same,Tmax,[2],1.83 ± 0.41 h
same,t1/2z,[2],4.18 ± 2.26 h
same,AUC(0−t),[3]; [4],1736.61 ± 257.41 ng·h/mL
same,AUC(0−∞),[3]; [4],1754.66 ± 238.70 ng·h/mL
same,CLz/F,[3]; [4],48.2 ± 6.5 mL/min/kg
same,Cmax,[3]; [4],336.63 ± 22.81 ng/mL
same,MRT(0−),[3]; [4],3.94 ± 0.34 h
same,MRT(0−∞),[3]; [4],4.3 ± 0.40 h
same,Tmax,[3]; [4],2.5 ± 1.23 h
same,Vz/F,[3]; [4],16.21 ± 14.31 L/kg
same,t1/2z,[3]; [4],3.65 ± 2.87 h
same,Change of CLZ/F in MDG compared with SDG,[3]; [5],marked decreasing tendency; also recorded: decreased significantly
same,Change of Cmax in MDG compared with SDG,[3]; [5],increased significantly; also recorded: significantly increased
same,Tmax (approximate),"[3]; according to the PK results, group not given, oral RC extract",about 2 h
same,Stability RE (%),"[1]; rat plasma, 4 °C, 48 h, spiked 10 ng/mL, n = 6",103.8%
same,Stability RE (%),"[1]; rat plasma, 4 °C, 48 h, spiked 50 ng/mL, n = 6",95.62%
same,Stability RE (%),"[1]; rat plasma, 4 °C, 48 h, spiked 400 ng/mL, n = 6",93.17%
same,Stability RE (%),"[1]; rat plasma, three freeze–thaw cycles, spiked 10 ng/mL, n = 6",88.83%
same,Stability RE (%),"[1]; rat plasma, three freeze–thaw cycles, spiked 50 ng/mL, n = 6",98.28%
same,Stability RE (%),"[1]; rat plasma, three freeze–thaw cycles, spiked 400 ng/mL, n = 6",93.72%
same,Stability RE (%),"[1]; rat plasma, −80 °C, 10 days, spiked 10 ng/mL, n = 6",92.37%
same,Stability RE (%),"[1]; rat plasma, −80 °C, 10 days, spiked 50 ng/mL, n = 6",100.9%
same,Stability RE (%),"[1]; rat plasma, −80 °C, 10 days, spiked 400 ng/mL, n = 6",90.82%
same,Stability in plasma samples (in words),"[1]; simulated sample storage, handling and analysis (48 h at 4 °C and 10 days in 3 freeze–thaw cycles)",stable
